How the values were obtained:
Experiment in all cases: Ki determination for immobilized VI16742: two consecutive incubations, control beads, ligand concentration and incubation time controls (Tables 7, 8)
Assay type in all cases: binding
[1] = biological target: cellular target proteins in HeLa cell lysate (Homo sapiens, UniProt Q04917); settings: Ki (VI16742), YWHAH IPI00216319
[2] = biological target: cellular target proteins in HeLa cell lysate (Homo sapiens, UniProt P16591); settings: Ki (VI16742), FER IPI00029263
[3] = biological target: cellular target proteins in HeLa cell lysate (Homo sapiens, UniProt P45984); settings: Ki (VI16742), JNK2 (MAPK9) IPI00024673
[4] = biological target: cellular target proteins in HeLa cell lysate (Homo sapiens, UniProt P49760); settings: Ki (VI16742), CLK2 IPI00028071
[5] = biological target: T1, cellular target proteins in HeLa cell lysate (Homo sapiens, UniProt Q8TD19); settings: Ki (VI16742), NEK9 IPI00301609
T1 sequence (Q8TD19 1-979): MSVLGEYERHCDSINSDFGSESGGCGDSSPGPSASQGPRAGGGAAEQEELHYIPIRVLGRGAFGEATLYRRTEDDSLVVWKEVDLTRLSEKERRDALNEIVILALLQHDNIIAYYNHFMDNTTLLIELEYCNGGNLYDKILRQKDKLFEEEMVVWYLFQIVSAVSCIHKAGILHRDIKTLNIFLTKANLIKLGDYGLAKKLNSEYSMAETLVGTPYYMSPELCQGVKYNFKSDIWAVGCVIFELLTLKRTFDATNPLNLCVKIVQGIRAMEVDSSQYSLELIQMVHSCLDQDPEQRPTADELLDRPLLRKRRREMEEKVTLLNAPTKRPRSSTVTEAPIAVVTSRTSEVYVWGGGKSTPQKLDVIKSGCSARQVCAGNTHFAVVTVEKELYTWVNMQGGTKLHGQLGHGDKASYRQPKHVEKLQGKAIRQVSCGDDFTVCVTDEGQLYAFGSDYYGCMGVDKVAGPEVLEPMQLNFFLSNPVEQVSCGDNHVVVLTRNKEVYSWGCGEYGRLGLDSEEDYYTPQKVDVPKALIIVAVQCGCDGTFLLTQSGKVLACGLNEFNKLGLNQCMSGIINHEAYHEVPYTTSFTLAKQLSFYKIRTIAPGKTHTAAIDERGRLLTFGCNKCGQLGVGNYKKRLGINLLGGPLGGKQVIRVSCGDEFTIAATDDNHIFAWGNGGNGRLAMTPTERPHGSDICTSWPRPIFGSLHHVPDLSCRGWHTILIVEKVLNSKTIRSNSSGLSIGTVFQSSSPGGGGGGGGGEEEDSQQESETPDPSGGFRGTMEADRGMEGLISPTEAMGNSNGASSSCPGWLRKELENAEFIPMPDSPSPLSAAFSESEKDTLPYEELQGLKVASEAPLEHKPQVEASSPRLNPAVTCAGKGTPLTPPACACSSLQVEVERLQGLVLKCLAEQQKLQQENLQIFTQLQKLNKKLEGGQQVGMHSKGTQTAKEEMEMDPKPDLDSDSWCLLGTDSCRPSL

Chains of the proteins cited; added tags and fusions are not shown. Lines headed by an entry give the natural chain unless they say otherwise; changes in a name come on top.
UniProt Q04917: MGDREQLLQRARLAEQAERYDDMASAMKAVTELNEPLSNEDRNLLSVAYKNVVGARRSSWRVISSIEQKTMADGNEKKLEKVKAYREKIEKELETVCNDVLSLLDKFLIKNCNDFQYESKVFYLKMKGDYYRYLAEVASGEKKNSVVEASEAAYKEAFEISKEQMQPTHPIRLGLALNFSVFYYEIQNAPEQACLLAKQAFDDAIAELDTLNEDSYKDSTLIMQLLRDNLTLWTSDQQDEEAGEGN
UniProt P16591: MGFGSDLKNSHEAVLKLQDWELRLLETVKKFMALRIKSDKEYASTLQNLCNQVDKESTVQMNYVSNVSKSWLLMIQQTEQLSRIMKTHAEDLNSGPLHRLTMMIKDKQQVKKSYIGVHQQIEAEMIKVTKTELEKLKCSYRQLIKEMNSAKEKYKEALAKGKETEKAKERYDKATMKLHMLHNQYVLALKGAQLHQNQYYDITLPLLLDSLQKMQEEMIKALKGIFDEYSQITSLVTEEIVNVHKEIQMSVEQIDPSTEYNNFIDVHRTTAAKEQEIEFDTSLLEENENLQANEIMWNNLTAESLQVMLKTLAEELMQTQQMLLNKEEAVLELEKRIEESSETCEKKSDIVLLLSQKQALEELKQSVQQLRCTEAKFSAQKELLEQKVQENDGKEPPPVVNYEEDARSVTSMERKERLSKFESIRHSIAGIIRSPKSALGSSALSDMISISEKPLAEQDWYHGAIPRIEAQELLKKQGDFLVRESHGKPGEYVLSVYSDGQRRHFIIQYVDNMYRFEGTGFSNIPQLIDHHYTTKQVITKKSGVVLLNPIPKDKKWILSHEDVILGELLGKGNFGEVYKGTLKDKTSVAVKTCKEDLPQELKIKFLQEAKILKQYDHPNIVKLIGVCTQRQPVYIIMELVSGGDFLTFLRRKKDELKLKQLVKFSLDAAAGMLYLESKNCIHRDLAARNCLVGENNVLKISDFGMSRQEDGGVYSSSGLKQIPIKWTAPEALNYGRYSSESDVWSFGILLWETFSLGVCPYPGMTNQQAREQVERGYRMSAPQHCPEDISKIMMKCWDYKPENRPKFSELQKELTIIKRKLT
UniProt P45984: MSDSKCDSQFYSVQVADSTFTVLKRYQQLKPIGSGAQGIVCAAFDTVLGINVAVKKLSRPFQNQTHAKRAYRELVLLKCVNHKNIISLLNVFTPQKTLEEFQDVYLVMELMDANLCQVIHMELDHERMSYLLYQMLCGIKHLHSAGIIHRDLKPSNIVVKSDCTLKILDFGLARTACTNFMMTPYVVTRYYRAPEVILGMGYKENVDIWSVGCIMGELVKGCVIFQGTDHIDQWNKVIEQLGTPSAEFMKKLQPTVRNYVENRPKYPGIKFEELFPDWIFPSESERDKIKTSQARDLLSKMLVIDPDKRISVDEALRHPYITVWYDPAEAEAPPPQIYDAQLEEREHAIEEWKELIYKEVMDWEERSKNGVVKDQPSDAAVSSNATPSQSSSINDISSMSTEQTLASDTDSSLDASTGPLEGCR
UniProt P49760, whole entry: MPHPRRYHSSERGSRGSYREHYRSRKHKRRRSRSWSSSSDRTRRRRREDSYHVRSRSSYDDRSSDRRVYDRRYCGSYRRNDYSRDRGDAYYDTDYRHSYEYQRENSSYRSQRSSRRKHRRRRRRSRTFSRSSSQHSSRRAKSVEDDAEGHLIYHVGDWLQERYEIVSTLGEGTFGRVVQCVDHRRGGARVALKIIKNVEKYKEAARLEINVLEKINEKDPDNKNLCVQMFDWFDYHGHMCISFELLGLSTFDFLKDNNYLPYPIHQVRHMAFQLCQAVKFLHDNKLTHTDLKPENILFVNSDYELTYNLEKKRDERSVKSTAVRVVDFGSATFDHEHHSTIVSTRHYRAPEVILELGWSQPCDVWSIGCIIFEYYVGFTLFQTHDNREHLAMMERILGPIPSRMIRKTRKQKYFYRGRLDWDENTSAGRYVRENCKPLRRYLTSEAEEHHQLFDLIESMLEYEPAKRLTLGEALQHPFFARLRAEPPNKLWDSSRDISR
UniProt Q8N5S9: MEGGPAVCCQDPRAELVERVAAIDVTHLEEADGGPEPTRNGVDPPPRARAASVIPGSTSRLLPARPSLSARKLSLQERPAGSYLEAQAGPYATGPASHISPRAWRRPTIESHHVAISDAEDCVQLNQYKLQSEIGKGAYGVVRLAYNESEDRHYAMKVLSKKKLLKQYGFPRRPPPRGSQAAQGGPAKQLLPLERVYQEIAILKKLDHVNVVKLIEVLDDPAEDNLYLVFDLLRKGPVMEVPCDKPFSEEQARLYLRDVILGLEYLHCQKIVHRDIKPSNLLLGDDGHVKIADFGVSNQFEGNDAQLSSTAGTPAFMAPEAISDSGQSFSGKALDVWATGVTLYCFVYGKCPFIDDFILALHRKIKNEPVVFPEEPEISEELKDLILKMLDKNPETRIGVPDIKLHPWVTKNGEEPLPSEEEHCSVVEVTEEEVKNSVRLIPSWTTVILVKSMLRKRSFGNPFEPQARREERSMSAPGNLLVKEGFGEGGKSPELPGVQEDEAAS
UniProt Q15418, whole entry: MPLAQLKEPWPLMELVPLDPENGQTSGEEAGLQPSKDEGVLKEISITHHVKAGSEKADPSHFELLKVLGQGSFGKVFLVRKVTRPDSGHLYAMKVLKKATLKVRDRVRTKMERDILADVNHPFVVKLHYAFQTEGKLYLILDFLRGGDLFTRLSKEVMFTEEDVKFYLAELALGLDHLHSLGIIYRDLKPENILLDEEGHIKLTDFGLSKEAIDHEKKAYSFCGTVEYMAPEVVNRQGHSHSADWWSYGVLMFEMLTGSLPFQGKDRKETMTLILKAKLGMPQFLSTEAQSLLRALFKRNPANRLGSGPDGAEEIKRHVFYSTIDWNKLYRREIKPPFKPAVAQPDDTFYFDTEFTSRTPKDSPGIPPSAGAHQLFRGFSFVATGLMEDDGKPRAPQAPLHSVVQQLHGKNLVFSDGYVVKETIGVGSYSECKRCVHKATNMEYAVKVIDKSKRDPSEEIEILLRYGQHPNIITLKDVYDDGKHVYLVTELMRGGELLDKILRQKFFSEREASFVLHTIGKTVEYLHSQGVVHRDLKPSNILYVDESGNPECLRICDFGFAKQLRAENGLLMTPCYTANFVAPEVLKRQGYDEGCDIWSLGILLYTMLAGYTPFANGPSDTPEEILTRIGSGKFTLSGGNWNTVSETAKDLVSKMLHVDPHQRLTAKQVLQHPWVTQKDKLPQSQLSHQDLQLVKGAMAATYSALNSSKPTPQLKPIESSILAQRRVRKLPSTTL

[6] = biological target: cellular target proteins in HeLa cell lysate (Homo sapiens, UniProt Q8N5S9); settings: Ki (VI16742), CaMKK1 (CAMKK1) IPI00657696
[7] = biological target: cellular target proteins in HeLa cell lysate (Homo sapiens, UniProt Q15418); settings: Ki (VI16742), RSK3 (RPS6KA1) IPI00017305

SMILES: CC(C)n1c(=O)ccc2cnc(Nc3ccc(OCCN)cc3)nc21 [V16742]
- Ki [1]: 28.9 µM
- Ki [2]: 6.26 µM
- Ki [3]: 3.43 µM
- Ki [4]: 6.31 µM
- Ki [5]: 2.3 µM
- Ki [6]: 41.2 µM
- Ki [7]: 19.2 µM

— patent publication US8959984B2, “Proteome-wide quantification of small molecule binding to cellular target proteins” (priority 2007, dated 2015)
